According to PubChem BioAssay AID522 (The Scripps Research Institute Molecular Screening Center, 2006):
This is a selection; strong and weak results do not stand in their true shares. The source made the active and inactive calls.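 Rule for the calls: active = activation above the mean activation of all tested compounds plus 3 SD (cut at about 50% in these data); inactive = the rest.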

Amino acid sequences for entries named in this document (tags omitted).
UniProt Q13285, whole entry: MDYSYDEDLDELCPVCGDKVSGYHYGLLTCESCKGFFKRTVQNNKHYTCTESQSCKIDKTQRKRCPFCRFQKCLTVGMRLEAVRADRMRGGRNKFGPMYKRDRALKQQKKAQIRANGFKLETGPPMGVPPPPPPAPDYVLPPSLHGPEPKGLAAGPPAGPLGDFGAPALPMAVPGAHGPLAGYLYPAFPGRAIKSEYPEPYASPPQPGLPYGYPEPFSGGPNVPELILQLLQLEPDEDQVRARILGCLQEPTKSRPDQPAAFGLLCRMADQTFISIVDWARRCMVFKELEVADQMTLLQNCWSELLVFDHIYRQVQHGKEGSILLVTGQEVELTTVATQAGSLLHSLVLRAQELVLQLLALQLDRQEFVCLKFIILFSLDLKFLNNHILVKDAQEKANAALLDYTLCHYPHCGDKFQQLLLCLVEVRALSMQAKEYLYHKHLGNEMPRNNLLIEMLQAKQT

Target: Steroidogenic factor 1 (Homo sapiens) (UniProt Q13285)
Assay: SF-1 ligand-binding domain transactivation enhancers – cell-based, CHO-K1, Gal4-SF-1 LBD, luciferase luminescence, primary screen (AID 522)
Settings: CHO-K1 Gal4-SF-1 LBD luciferase reporter; at 10 µM; hits give high values; % increase over DMSO SF-1-specific signal
In short: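 Test system: CHO-K1 cells with Gal4–hSF-1 LBD chimera plus Gal4-driven luciferase; Input: 4,000 cells/well; Compound: 10 µM only; Times: 20 h compound treatment, 37 °C; Measured by: steady-glow luciferase luminescence, read after 15 min reagent incubation; Measure: percent activation versus DMSO; Control set: DMSO and mock-transfected background; Replicates: one test per compound.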

Row | SMILES | activation
1 | CP(=O)(Nc1ccccn1)Oc1ccccc1 (stereo not drawn) | inactive: -4%
2 | Cc1nc2ccc3ccccc3c2o1.O=[N+]([O-])c1cc([N+](=O)[O-])c(O)c([N+](=O)[O-])c1 | inactive: 11.2%
3 | COc1ccccc1OP(C)(=O)Nc1ccc(C)c(C)c1 (stereo not drawn) | inactive: -3.5%
4 | COc1ccccc1OP(C)(=O)Nc1c(C)n(C)n(-c2ccccc2)c1=O (stereo not drawn) | inactive: 1.1%
5 | CP(=O)(Oc1ccccc1)N1CCOC1=O (stereo not drawn) | inactive: -24.1%
6 | CCN(CC)CC(O)COC(=O)C(O)(c1ccccc1)C1CCCCC1 (stereo not drawn) | inactive: 10.8%
7 | Cc1ccccc1NP(C)(=O)Nc1ccccc1C | inactive: -4.2%
8 | CP(=O)(Nc1ccc2c(c1)OCCO2)Oc1ccccc1 (stereo not drawn) | inactive: 10.6%
9 | CCOP(C)(=S)SCC(=O)NC(C)(CC)C(=O)O (stereo not drawn) | inactive: 0.7%
10 | CN(C)CCOC(=O)C(O)(c1ccccc1)C1CCCCC1 (stereo not drawn) | inactive: -14.7%
11 | CP(=O)(Nc1ccccc1F)Oc1ccccc1 (stereo not drawn) | inactive: -18.1%
12 | Cc1ccc(C)c(NP(C)(=O)Oc2ccccc2)c1 (stereo not drawn) | inactive: 7.3%
13 | Cc1nc2ccc3ccccc3c2s1.O=[N+]([O-])c1cc([N+](=O)[O-])c(O)c([N+](=O)[O-])c1 | inactive: -18.4%
14 | CCOP(C)(=S)SCC(=O)NC(C)C(=O)O (stereo not drawn) | inactive: 8.1%
15 | CP(=O)(NC(=O)Nc1ccccc1)Oc1ccccc1 (stereo not drawn) | inactive: 0.5%
16 | CP(=S)(Nn1cnnc1)Oc1ccccc1 (stereo not drawn) | inactive: 0.2%
17 | Cc1ccc(NP(C)(=O)Oc2ccccc2)c(C)c1 (stereo not drawn) | inactive: -7.2%
18 | COc1ccccc1OP(C)(=O)Nc1ccc(C)cc1 (stereo not drawn) | inactive: 17%
